From patent US10081623B2, “Diamide macrocycles that are FXIa inhibitors” (BRISTOL-MYERS SQUIBB COMPANY, priority 2014, dated 2018)

By UniProt entry, the sequences of proteins in these tests, tags left out. Residues count along the entry.
UniProt P03951, 19-387 partner: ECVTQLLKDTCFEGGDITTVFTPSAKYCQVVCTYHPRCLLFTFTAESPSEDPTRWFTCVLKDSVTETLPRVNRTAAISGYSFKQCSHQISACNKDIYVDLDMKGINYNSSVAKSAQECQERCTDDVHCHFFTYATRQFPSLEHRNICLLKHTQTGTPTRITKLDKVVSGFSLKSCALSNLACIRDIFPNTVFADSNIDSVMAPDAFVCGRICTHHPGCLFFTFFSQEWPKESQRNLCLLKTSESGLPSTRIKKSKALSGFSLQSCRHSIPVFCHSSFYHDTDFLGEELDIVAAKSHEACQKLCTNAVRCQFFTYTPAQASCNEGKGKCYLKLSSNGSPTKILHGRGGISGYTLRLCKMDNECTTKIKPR
UniProt P03951, 388-625: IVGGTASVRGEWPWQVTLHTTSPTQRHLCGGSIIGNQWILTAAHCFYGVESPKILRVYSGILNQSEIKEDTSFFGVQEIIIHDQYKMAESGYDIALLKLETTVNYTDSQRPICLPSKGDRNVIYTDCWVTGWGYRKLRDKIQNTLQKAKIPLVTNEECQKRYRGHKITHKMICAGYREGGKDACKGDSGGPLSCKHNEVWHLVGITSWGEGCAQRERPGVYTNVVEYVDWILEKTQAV

What follows are molecules tested against purified human Factor XIa (Homo sapiens (Human), UniProt P03951) (assay: Factor XIa assay (chromogenic substrate S-2366 hydrolysis, Ki)). Conditions: measured at 37° C.
Type: biochemical
Procedure: The effectiveness of compounds of the present invention as inhibitors of the coagulation Factors XIa, VIIa, IXa, Xa, XIIa, plasma kallikrein or thrombin, can be determined using a relevant purified serine protease, respectively, and an appropriate synthetic substrate. The rate of hydrolysis of the chromogenic or fluorogenic substrate by the relevant serine protease was measured both in the absence and presence of compounds of the present invention. […] A decrease in the rate of absorbance or fluorescence change in the presence of inhibitor is indicative of enzyme inhibition. Such methods are known to one skilled in the art. The results of this assay are expressed as the inhibitory constant, Ki.
Factor XIa determinations were made in 50 mM HEPES buffer at pH 7.4 containing 145 mM NaCl, 5 mM KCl, and 0.1% PEG 8000 (polyethylene glycol; JT Baker or Fisher Scientific). Determinations were made using purified human Factor XIa at a final concentration of 25-200 pM (Haematologic Technologies) and the synthetic substrate S-2366 (pyroGlu-Pro-Arg-pNA; CHROMOGENIX® or AnaSpec) at a concentration of 0.0002-0.001 M.
The Michaelis constant, Km, for substrate hydrolysis by each protease, was determined at 25° C. or 37° C. in the absence of inhibitor. Values of Ki were determined by allowing the protease to react with the substrate in the presence of the inhibitor. Reactions were allowed to go for periods of 20-180 minutes (depending on the protease) and the velocities (rate of absorbance or fluorescence change versus time) were measured. The following relationships were used to calculate Ki values: (Vmax*S)/(Km+S); (vo−vs)/vs=I/(Ki(1+S/Km)) for a competitive inhibitor with one binding site; or vs/vo=A+(B−A)/(1+(I/IC50)^n); and Ki=IC50/(1+S/Km) for a competitive inhibitor where: […]

Row | Compound | Ki [nM]
1 | COC(=O)Nc1ccc2c(c1)NC(=O)CC(C)CCCC(C(=O)NCCc1cc(Cl)ccc1-n1cnnn1)NC2=O (racemic) [Example 11, (±)-Methyl N-[8-({2-[5-chloro-2-(1H-1,2,3,4-tetrazol-1-yl)phenyl]ethyl}carbamoyl)-4-methyl-2,10-dioxo-1,2,3,4,5,6,7,8,9,10-decahydro-1,9-benzodiazacyclododecin-13-yl]carbamate] | 73.6
2 | COC(=O)Nc1ccc2c(c1)NC(=O)C(C)CCCCC(C(=O)NCCc1cc(Cl)ccc1-n1cnnn1)NC2=O (single isomer, unassigned) [Example 21, Methyl N-[8-({2-[5-chloro-2-(1H-1,2,3,4-tetrazol-1-yl)phenyl]ethyl}carbamoyl)-3-methyl-2,10-dioxo-1,2,3,4,5,6,7,8,9,10-decahydro-1,9-benzodiazacyclododecin-13-yl]carbamate] | 14.1
3 | COC(=O)Nc1ccc2c(c1)NC(=O)C(C)CCCCC(C(=O)NCCc1cc(Cl)ccc1-n1cnnn1)NC2=O (racemic) [Example 16, (±)-Methyl N-[8-({2-[5-chloro-2-(1H-1,2,3,4-tetrazol-1-yl)phenyl]ethyl}carbamoyl)-3-methyl-2,10-dioxo-1,2,3,4,5,6,7,8,9,10-decahydro-1,9-benzodiazacyclododecin-13-yl]carbamate] | 73.2
4 | COC(=O)Nc1ccc2c(c1)NC(=O)CC(C)CCCC(C(=O)NCCc1cc(Cl)ccc1-n1cnnn1)NC2=O (single isomer, unassigned) [Example 13, Methyl N-[8-({2-[5-chloro-2-(1H-1,2,3,4-tetrazol-1-yl)phenyl]ethyl}carbamoyl)-4-methyl-2,10-dioxo-1,2,3,4,5,6,7,8,9,10-decahydro-1,9-benzodiazacyclododecin-13-yl]carbamate] | 34.3
5 | COC(=O)Nc1ccc2c(c1)NC(=O)CC(C)/C=C/CC(C(=O)NCCc1cc(Cl)ccc1-n1cnnn1)NC2=O (single isomer, unassigned) [Example 34, (E)-Methyl N-[8-({2-[5-chloro-2-(1H-1,2,3,4-tetrazol-1-yl)phenyl]ethyl}carbamoyl)-4-methyl-2,10-dioxo-1,2,3,4,7,8,9,10-octahydro-1,9-benzodiazacyclododecin-13-yl]carbamate] | < 5
6 | O=C1CCCCCC(C(=O)NCCc2cc(Cl)ccc2-n2cnnn2)NC(=O)c2ccccc2N1 (racemic) [Example 28, (±)-N-{2-[5-Chloro-2-(1H-1,2,3,4-tetrazol-1-yl)phenyl]ethyl}-2,10-dioxo-1,2,3,4,5,6,7,8,9,10-decahydro-1,9-benzodiazacyclododecine-8-carboxamide] | 338
7 | COC(=O)Nc1ccc2c(c1)NC(=O)CCCCCC(C(=O)N1CCC(c3cccc(Cl)c3)C1)NC2=O (racemic) [Example 9, (±)-Methyl N-{8-[3-(3-chlorophenyl)pyrrolidine-1-carbonyl]-2,10-dioxo-1,2,3,4,5,6,7,8,9,10-decahydro-1,9-benzodiazacyclododecin-13-yl}carbamate] | 2070
8 | COC(=O)Nc1ccc2c(c1)NC(=O)C(C)CCCCC(C(=O)NCCc1cc(Cl)ccc1-n1cnnn1)NC2=O (racemic) [Example 17, (±)-Methyl N-[8-({2-[5-chloro-2-(1H-1,2,3,4-tetrazol-1-yl)phenyl]ethyl}carbamoyl)-3-methyl-2,10-dioxo-1,2,3,4,5,6,7,8,9,10-decahydro-1,9-benzodiazacyclododecin-13-yl]carbamate] | 104
9 | COC(=O)Nc1ccc2c(c1)NC(=O)CC(C)CCCC(C(=O)NCCc1cc(Cl)ccc1-n1cnnn1)NC2=O (single isomer, unassigned) [Example 14, Methyl N-[8-({2-[5-chloro-2-(1H-1,2,3,4-tetrazol-1-yl)phenyl]ethyl}carbamoyl)-4-methyl-2,10-dioxo-1,2,3,4,5,6,7,8,9,10-decahydro-1,9-benzodiazacyclododecin-13-yl]carbamate] | 336
10 | COC(=O)Nc1ccc2c(c1)NC(=O)C(C)CCCCC(C(=O)NCCc1cc(Cl)ccc1-n1cnnn1)NC2=O (single isomer, unassigned) [Example 19, Methyl N-[8-({2-[5-chloro-2-(1H-1,2,3,4-tetrazol-1-yl)phenyl]ethyl}carbamoyl)-3-methyl-2,10-dioxo-1,2,3,4,5,6,7,8,9,10-decahydro-1,9-benzodiazacyclododecin-13-yl]carbamate] | 596
11 | COC(=O)Nc1ccc2c(c1)NC(=O)CC(C)CCCC(C(=O)NCCc1cc(Cl)ccc1-n1cnnn1)NC2=O (single isomer, unassigned) [Example 12, Methyl N-[8-({2-[5-chloro-2-(1H-1,2,3,4-tetrazol-1-yl)phenyl]ethyl}carbamoyl)-4-methyl-2,10-dioxo-1,2,3,4,5,6,7,8,9,10-decahydro-1,9-benzodiazacyclododecin-13-yl]carbamate] | 81.8
12 | COC(=O)Nc1ccc2c(c1)NC(=O)C(C)CCCCC(C(=O)NCCc1cc(Cl)ccc1-n1cnnn1)NC2=O (single isomer, unassigned) [Example 18, Methyl N-[8-({2-[5-chloro-2-(1H-1,2,3,4-tetrazol-1-yl)phenyl]ethyl}carbamoyl)-3-methyl-2,10-dioxo-1,2,3,4,5,6,7,8,9,10-decahydro-1,9-benzodiazacyclododecin-13-yl]carbamate] | 54.3
13 | COC(=O)Nc1ccc2c(c1)NC(=O)CC(C)/C=C/CC(C(=O)NCCc1cc(Cl)ccc1-n1cnnn1)NC2=O (single isomer, unassigned) [Example 35, (E)-Methyl N-[8-({2-[5-chloro-2-(1H-1,2,3,4-tetrazol-1-yl)phenyl]ethyl}carbamoyl)-4-methyl-2,10-dioxo-1,2,3,4,7,8,9,10-octahydro-1,9-benzodiazacyclododecin-13-yl]carbamate] | 216
14 | COC(=O)Nc1ccc2c(c1)NC(=O)CC(C)/C=C\CC(C(=O)NCCc1cc(Cl)ccc1-n1cnnn1)NC2=O (racemic) [Example 32, (Z)-(±)-Methyl N-[8-({2-[5-chloro-2-(1H-1,2,3,4-tetrazol-1-yl)phenyl]ethyl}carbamoyl)-4-methyl-2,10-dioxo-1,2,3,4,7,8,9,10-octahydro-1,9-benzodiazacyclododecin-13-yl]carbamate] | 17.4
